Target: Serine/threonine-protein kinase PLK1 (Homo sapiens, UniProt P53350)

By UniProt entry, the sequences of proteins in these tests, tags left out.
UniProt P53350, whole entry: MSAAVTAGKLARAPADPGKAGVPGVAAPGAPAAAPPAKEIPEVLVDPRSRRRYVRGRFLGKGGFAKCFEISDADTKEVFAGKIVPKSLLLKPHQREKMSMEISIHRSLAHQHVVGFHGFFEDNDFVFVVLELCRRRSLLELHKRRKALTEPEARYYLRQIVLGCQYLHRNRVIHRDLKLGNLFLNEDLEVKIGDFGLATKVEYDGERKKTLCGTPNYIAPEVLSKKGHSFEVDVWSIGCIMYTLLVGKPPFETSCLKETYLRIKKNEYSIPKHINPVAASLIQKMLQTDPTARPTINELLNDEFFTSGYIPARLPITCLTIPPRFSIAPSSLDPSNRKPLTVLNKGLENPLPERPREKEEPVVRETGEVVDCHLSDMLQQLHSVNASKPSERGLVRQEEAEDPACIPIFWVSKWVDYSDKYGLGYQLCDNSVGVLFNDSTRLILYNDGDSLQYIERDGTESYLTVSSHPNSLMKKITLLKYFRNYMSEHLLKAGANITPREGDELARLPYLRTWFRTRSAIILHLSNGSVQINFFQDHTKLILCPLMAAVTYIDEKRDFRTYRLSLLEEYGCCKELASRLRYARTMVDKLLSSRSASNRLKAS

Structure (SMILES): CN1CCN(c2ccc(OC(F)(F)F)c(Nc3ncc4c(n3)-c3c(c(C(N)=O)nn3C)CC4)c2)CC1
- IC50: 3 nM

Reference: ChEMBL document CHEMBL1268971, “4,5-Dihydro-1H-pyrazolo[4,3-h]quinazolines as potent and selective Polo-like kinase 1 (PLK1) inhibitors” (Bioorg Med Chem Lett, 2010)
